Experimental data reported in article PMC10508484, “Development and application of a PBPK modeling strategy to support antimalarial drug development” (CPT: Pharmacometrics & Systems Pharmacology, 2023).

Sequences of proteins named here, by UniProt entry; tags and fusion partners are left off.
UniProt P10635, whole entry: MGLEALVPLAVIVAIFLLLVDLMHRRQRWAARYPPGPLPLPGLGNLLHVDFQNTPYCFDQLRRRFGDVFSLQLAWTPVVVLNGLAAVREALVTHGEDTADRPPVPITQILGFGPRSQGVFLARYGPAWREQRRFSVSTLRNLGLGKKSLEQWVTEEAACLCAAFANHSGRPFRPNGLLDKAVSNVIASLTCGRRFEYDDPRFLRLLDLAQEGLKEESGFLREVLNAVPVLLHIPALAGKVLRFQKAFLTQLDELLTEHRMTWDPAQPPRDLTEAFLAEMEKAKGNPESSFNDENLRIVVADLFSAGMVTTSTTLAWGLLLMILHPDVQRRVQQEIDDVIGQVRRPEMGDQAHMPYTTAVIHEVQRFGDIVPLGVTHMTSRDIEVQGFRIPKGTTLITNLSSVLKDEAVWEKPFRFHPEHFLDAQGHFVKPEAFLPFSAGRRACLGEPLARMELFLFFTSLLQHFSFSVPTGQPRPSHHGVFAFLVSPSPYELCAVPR

Tests used:
CYP2D6 = CYP2D6 (Homo sapiens, UniProt P10635); assay: Metabolism by CYP2D6 (CLint, fm)
MAO = details: fraction metabolised used in the PBPK model

COc1cc(NC(C)CCCN)c2ncccc2c1 (stereo not drawn) [Primaquine, primaquine] was tested, and the fmCYP2D6 (CYP2D6; fraction metabolised used in the PBPK model) was 11%, the “CLint CYP2D6” value (CYP2D6; retrograde calculations) was 0.496 µL/min/pmol and the fmMAO (MAO) was 89%.
